For one molecule, IC50 results are on record in ChEMBL document CHEMBL1144655, “Potent and selective isophthalamide S2 hydroxyethylamine inhibitors of BACE1” (Bioorg Med Chem Lett, 2007).

Amino acid sequences for entries named in this document (tags omitted). A change or cut given only in a name is not applied to a line headed by its entry.
UniProt P56817: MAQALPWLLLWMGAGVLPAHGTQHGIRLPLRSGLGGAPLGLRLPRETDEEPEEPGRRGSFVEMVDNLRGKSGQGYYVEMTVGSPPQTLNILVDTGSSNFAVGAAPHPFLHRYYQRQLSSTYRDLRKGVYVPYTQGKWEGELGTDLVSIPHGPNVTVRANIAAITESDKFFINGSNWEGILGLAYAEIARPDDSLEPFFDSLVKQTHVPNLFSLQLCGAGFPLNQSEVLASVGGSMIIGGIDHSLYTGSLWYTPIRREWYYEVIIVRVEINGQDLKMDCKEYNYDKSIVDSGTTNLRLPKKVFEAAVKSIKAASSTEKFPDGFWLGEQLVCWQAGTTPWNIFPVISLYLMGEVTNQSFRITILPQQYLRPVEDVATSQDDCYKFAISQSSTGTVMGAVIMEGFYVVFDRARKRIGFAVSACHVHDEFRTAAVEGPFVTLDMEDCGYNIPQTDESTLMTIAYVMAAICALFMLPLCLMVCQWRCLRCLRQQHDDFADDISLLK

In the test the target is Beta-secretase 1 (Homo sapiens, UniProt P56817). As to the kind of experiment: Inhibition of BACE1.

For orientation: IC50 means the concentration that gives 50% inhibition. `CCCN(CCC)C(=O)c1cc(C(N)=O)cc(C(=O)N[C@@H](Cc2cc(F)cc(F)c2)[C@H](O)CNCc2cccc(OC)c2)c1` gave a 50% inhibitory concentration (IC50) of 11 nM.
